Assay [1] addresses Histone deacetylase 3 (Homo sapiens, UniProt O15379). Briefly: Inhibition of recombinant HDAC3 (unknown origin) by homogeneous fluorescence release assay.
Assay [2] concerns the target T1, Protein deacetylase HDAC6 (Homo sapiens, UniProt Q9UBN7).
T1 sequence (Q9UBN7 whole entry): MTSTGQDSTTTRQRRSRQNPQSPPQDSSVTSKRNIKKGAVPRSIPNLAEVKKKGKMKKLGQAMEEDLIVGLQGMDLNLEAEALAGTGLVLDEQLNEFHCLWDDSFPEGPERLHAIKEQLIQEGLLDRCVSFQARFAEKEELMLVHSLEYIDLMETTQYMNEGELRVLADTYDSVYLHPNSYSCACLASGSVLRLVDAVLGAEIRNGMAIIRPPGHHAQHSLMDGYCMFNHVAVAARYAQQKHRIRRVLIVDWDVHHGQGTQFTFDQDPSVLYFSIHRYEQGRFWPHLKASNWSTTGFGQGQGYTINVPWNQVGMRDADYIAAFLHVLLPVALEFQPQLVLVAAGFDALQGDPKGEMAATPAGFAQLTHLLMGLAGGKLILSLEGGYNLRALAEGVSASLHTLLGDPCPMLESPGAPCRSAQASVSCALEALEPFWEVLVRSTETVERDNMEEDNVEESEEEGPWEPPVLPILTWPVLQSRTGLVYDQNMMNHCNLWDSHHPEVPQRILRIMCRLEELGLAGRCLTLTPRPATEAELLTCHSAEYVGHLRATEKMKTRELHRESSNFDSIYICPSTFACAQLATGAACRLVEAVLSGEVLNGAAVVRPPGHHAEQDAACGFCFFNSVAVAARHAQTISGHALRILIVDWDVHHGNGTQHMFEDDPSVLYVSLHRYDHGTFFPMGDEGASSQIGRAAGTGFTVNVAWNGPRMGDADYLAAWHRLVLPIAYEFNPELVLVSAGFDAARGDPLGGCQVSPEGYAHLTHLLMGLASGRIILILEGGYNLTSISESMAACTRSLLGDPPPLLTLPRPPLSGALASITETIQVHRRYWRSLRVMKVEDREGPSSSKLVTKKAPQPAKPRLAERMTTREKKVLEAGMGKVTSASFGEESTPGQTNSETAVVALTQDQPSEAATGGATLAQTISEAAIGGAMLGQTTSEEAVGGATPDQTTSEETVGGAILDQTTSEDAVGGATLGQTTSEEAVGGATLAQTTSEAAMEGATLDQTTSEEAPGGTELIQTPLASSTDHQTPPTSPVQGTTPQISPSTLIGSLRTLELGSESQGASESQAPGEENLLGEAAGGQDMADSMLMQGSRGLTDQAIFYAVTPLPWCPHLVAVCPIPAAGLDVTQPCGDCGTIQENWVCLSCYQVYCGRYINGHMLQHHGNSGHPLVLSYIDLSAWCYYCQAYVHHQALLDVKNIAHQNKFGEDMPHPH
Briefly: Inhibition of recombinant HDAC6 (unknown origin) by homogeneous fluorescence release assay.

The chains behind the UniProt entries cited, without tags or fusion partners. Where a name states a change or a piece, a line headed by the entry shows the natural chain unless it says otherwise.
UniProt O15379: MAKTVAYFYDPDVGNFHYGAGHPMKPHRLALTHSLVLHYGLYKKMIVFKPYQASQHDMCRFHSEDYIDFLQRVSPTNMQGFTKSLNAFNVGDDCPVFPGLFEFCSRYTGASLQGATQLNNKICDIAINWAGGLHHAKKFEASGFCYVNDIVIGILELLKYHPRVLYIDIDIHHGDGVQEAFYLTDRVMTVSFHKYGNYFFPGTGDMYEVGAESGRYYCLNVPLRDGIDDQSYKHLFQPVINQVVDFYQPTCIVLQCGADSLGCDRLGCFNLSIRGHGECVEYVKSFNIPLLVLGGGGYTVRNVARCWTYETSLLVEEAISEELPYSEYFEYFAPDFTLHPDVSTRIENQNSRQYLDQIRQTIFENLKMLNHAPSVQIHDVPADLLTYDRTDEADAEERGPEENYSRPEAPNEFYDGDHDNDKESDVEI

`O=C(CCCCSc1nc(-c2ccc(-c3ccccc3)cc2)cc(=O)[nH]1)NO`: the 50% inhibitory concentration (IC50) is 0.02 µM in assay [1] and 0.007 µM in assay [2].

Broadly, the IC50 is the concentration at which inhibition is half-maximal.

The values are drawn from ChEMBL document CHEMBL3425488, “Novel histone deacetylase inhibitors induce growth arrest, apoptosis, and differentiation in sarcoma cancer stem cells” (J Med Chem, 2015).
